For test [1], the target named is T1, HIV-1 RT-associated RNase H (Human immunodeficiency virus type 1 group M subtype B, UniProt P04585).
T1 construct: The recombinant HIV-1 RT protein; His tag; made in house; host or cells: E. coli strain M15
The test is described as follows: HIV-1 RNase H polymerase-independent cleavage assay. The format is biochemical.

The target of test [2] is HIV-1 IN in the presence of LEDGF/p75 (Human immunodeficiency virus type 1 group M subtype B, UniProt P04585). Put plainly: biochemical.
Test [3] addresses HIV-1 RT-associated RNA-dependent DP (Human immunodeficiency virus type 1 group M subtype B, UniProt P04585). Put plainly: biochemical.

The results in this text go back to PMC5000766, “Inhibitory Effect of 2,3,5,6-Tetrafluoro-4-[4-(aryl)-1H-1,2,3-triazol-1-yl]benzenesulfonamide Derivatives on HIV Reverse Transcriptase Associated RNase H Activities” (International Journal of Molecular Sciences, 2016).

One may read the IC50 as the concentration that gives 50% inhibition.

Turning to `CCCCCc1ccc(-c2cn(-c3ccc(S(N)(=O)=O)cc3)nn2)cc1` [Compound 9d], the IC50 in test [1] is 63 ± 7 µM; in test [2], over 100 µM; in test [3] it was over 100 µM.
Regarding `CCCCCc1ccc(-c2cn(-c3c(F)c(F)c(S(N)(=O)=O)c(F)c3F)nn2)cc1` [Compound 10d], the 50% inhibitory concentration (IC50) in test [1] is 6.6 ± 0.5 µM; in test [2] it was over 100 µM; in test [3], 33.4 ± 5.8 µM. For the same compound, in test [1] (ratio of the RNase H IC50 value vs. the DP IC50 value), the “specificity index (SpI)” value was ~ 5.
